Assay results: patent US20150258192A1, “COMPOSITIONS AND METHODS FOR PREVENTING OR TREATING CHRONIC LUNG ALLOGRAFT DYSFUNCTION (CLAD) AND IDIOPATHIC PULMONARY FIBROSIS (IPF)” (priority 2014, published 2015)

Chains of the proteins cited; added tags and fusions are not shown. Lines headed by an entry give the natural chain unless they say otherwise; changes in a name come on top.
UniProt Q9Y243: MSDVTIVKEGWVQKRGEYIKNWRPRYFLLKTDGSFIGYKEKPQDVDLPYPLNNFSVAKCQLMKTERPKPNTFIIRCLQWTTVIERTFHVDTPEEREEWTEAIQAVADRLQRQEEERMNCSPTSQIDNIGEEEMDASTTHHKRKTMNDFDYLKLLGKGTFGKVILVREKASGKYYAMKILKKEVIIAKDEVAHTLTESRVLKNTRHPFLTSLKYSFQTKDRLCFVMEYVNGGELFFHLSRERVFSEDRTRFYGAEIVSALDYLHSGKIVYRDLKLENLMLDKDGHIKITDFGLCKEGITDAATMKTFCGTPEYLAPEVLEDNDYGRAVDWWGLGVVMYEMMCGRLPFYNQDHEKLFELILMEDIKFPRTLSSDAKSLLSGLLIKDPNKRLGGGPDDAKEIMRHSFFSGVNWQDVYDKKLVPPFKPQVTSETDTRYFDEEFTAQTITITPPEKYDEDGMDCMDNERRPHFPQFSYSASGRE
UniProt O14920: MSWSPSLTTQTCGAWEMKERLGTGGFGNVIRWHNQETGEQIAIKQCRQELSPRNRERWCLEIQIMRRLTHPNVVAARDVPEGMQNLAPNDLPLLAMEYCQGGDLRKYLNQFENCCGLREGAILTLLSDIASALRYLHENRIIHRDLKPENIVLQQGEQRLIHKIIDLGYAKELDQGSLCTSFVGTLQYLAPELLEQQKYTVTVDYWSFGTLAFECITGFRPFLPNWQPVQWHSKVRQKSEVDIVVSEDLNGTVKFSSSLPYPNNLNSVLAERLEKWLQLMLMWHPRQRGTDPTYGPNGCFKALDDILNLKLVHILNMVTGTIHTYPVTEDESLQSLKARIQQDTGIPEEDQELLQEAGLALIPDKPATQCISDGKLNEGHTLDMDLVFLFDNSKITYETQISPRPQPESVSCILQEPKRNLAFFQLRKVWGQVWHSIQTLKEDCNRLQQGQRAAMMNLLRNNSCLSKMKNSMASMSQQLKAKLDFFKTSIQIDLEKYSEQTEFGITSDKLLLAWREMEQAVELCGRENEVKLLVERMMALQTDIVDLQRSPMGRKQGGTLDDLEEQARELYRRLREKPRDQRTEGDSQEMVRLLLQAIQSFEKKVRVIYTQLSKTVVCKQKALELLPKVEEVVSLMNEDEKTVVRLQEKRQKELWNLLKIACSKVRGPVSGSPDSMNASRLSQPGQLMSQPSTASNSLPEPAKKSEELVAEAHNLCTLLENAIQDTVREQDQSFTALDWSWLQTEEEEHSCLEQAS
UniProt P78368: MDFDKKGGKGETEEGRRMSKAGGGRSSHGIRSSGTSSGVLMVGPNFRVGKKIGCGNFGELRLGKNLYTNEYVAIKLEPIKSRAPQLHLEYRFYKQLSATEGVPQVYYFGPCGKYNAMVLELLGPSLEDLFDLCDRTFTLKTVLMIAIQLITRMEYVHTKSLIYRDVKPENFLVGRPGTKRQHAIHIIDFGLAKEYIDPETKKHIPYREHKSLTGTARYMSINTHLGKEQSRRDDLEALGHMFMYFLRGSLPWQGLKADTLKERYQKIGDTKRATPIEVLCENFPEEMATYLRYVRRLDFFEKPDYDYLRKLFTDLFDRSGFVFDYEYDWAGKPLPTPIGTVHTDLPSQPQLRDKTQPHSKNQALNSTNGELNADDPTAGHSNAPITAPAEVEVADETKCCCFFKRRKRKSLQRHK
UniProt P57059: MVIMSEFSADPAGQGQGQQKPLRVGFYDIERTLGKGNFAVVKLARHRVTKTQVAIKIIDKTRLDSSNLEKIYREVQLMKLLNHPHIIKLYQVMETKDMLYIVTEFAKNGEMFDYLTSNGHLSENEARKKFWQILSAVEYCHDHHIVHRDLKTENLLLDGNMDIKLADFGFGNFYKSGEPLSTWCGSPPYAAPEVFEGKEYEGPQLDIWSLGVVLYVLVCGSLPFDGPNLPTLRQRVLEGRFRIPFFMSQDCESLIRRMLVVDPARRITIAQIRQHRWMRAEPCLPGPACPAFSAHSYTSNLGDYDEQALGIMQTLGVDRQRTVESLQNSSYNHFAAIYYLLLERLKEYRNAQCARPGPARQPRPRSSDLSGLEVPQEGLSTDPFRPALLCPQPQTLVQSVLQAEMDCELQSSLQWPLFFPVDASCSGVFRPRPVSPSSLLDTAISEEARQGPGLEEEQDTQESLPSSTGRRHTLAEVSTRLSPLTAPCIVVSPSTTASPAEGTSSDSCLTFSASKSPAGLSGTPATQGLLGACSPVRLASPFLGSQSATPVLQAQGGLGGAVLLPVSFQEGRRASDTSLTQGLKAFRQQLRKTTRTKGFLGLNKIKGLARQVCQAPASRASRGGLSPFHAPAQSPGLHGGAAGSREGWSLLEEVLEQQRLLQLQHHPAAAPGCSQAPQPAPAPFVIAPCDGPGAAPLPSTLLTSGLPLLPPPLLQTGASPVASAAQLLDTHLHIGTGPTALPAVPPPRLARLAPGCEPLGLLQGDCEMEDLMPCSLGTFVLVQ

How the values were obtained:
Experiment in all cases: Kinase Profiling Assay
Format in all cases: biochemical
Settings in all cases: peptide 100 μM
cKit(V560G)(h) = cKit(V560G)(h) (Homo sapiens, UniProt P10721, V560G)
Procedure, shortened: (§1)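 Duplicate wells; [radiolabeled] ATP phosphate onto cationic substrate; filter capture (negatively charged membrane); scintillation count; % of 100% activity control. Selectivity screen of MK2 peptide inhibitors, 266 human kinases.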

PKCη(h) = PKCη(h) (Homo sapiens, UniProt P24723)
Procedure, shortened: as §1

IGF-1R(h) = target: T1, IGF-1R(h) (Homo sapiens, UniProt P08069)
T1 construct: purchased Millipore
Procedure, shortened: as §1

PKBγ(h) = PKBγ(h) (Homo sapiens, UniProt Q9Y243)
Procedure, shortened: as §1

CDK2/cyclinA(h) = CDK2/cyclinA(h) (Homo sapiens, UniProt P24941)
Procedure, shortened: as §1

IKKβ(h) = target: T2, IKKβ(h) (Homo sapiens, UniProt O14920)
T2 construct: purchased Millipore
Procedure, shortened: as §1

CK1γ2(h) = CK1γ2(h) (Homo sapiens, UniProt P78368)
Procedure, shortened: as §1

Abl(h) = Abl(h) (Homo sapiens, UniProt P00519)
Procedure, shortened: as §1

EGFR(T790M)(h) = EGFR(T790M)(h) (Homo sapiens, UniProt P00533, T790M)
Procedure, shortened: as §1

eEF-2K(h) = eEF-2K(h) (Homo sapiens, UniProt O00418)
Procedure, shortened: as §1

DDR2(h) = target: T3, DDR2(h) (Homo sapiens, UniProt Q16832)
T3 sequence (Q16832 22-855): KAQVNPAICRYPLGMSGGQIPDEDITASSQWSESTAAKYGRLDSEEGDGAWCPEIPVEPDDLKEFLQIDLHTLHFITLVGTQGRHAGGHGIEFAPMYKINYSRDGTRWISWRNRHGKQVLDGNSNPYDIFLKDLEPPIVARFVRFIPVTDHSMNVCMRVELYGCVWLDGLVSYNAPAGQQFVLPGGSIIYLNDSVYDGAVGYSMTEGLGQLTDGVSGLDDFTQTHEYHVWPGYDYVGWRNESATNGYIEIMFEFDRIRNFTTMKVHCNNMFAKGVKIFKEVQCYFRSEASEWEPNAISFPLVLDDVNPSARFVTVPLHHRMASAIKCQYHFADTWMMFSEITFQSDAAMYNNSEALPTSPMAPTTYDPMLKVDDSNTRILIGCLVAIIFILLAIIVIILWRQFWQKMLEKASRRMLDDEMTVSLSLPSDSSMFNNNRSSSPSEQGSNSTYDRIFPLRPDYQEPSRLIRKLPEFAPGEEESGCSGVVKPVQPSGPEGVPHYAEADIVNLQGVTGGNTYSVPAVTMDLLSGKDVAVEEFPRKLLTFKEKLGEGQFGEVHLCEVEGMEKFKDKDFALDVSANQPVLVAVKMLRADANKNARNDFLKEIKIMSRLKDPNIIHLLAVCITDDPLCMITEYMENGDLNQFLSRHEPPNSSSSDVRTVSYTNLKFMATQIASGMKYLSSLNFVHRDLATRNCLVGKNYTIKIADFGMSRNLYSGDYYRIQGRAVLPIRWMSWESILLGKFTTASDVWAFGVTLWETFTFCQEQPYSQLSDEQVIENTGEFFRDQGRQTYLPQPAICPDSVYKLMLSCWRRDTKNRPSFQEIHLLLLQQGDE
Procedure, shortened: as §1

SIK(h) = target: T4, SIK(h) (Homo sapiens, UniProt P57059)
T4 construct: purchased Millipore
Procedure, shortened: as §1

JNK2α2(h) = target: T5, JNK2α2(h) (Homo sapiens, UniProt P45984)
T5 construct: purchased Millipore
Procedure, shortened: as §1

CHK2(h) = CHK2(h) (Homo sapiens, UniProt O96017)
Procedure, shortened: as §1

EphA3(h) = target: T6, EphA3(h) (Homo sapiens, UniProt P29320)
T6 sequence (P29320 21-983): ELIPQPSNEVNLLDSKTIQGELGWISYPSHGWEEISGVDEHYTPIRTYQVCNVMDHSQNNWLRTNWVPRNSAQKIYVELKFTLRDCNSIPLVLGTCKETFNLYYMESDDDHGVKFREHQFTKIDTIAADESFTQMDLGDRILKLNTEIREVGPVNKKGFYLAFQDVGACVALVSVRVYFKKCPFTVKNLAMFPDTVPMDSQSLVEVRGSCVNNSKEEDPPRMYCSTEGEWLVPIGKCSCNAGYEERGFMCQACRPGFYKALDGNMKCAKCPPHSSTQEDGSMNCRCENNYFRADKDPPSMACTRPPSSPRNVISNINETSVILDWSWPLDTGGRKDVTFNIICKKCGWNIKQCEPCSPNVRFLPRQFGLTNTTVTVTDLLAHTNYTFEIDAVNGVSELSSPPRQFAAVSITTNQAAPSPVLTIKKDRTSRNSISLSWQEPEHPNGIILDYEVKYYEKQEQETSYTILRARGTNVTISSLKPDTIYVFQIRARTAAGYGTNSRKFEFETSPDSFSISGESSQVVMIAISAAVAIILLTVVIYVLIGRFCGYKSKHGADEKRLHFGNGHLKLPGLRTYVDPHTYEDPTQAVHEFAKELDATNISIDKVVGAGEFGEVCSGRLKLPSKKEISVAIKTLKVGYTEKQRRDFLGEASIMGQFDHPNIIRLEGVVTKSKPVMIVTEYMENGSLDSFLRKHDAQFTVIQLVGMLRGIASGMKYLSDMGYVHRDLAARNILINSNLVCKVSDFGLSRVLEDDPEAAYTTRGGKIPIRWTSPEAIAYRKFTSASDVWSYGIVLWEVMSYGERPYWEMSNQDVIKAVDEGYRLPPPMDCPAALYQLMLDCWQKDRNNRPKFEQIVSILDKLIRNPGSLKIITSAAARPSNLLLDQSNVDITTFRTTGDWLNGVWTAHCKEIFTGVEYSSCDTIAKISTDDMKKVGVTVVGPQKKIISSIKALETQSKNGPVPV
Procedure, shortened: as §1

FAKLAARLYRKALARQLGVAA [MMI-0300]
% activity (cKit(V560G)(h)): 102% | % activity (PKCη(h)): 103% | % activity (IGF-1R(h)): 119%

YARAAARQARAKALNRQLGVA (Mammal) [MMI-0200]
% activity (PKBγ(h)): 103% | % activity (CDK2/cyclinA(h)): 114% | % activity (IKKβ(h)): 109% | % activity (cKit(V560G)(h)): 115% | % activity (CK1γ2(h)): 104% | % activity (Abl(h)): 107% | % activity (EGFR(T790M)(h)): 113% | % activity (eEF-2K(h)): 136% | % activity (DDR2(h)): 104% | % activity (SIK(h)): 102% | % activity (JNK2α2(h)): 109% | % activity (CHK2(h)): 105% | % activity (EphA3(h)): 117%

CC(C)C[C@H](NC(=O)[C@H](C)NC(=O)[C@H](CCCCN)NC(=O)[C@H](C)NC(=O)[C@H](CCCNC(=N)N)NC(=O)[C@H](C)NC(=O)[C@H](CCC(N)=O)NC(=O)[C@H](CCCNC(=N)N)NC(=O)[C@H](C)NC(=O)[C@H](C)NC(=O)[C@H](C)NC(=O)[C@H](CCCNC(=N)N)NC(=O)[C@H](C)NC(=O)[C@@H](N)Cc1ccc(O)cc1)C(=O)N[C@@H](C)C(=O)N[C@@H](CCCNC(=N)N)C(=O)N[C@@H](CCC(N)=O)C(=O)N[C@@H](CC(C)C)C(=O)NCC(=O)N[C@H](C(=O)N[C@@H](C)C(=O)N[C@@H](C)C(=O)O)C(C)C [MMI-0100]
% activity (PKBγ(h)): 105% | % activity (CDK2/cyclinA(h)): 97% | % activity (IKKβ(h)): 105% | % activity (CK1γ2(h)): 119% | % activity (Abl(h)): 136% | % activity (PKCη(h)): 105% | % activity (EGFR(T790M)(h)): 106% | % activity (eEF-2K(h)): 113% | % activity (DDR2(h)): 105% | % activity (IGF-1R(h)): 102% | % activity (SIK(h)): 113% | % activity (JNK2α2(h)): 114% | % activity (CHK2(h)): 104% | % activity (EphA3(h)): 107%
